# Only a part is listed here, and it is no random draw. Active and inactive are the calls of the source. Cut-off read from the data, not from the text of the source: active = inhibition above about 43%; inactive = the rest.
# The chains behind the UniProt entries cited, without tags or fusion partners.
# UniProt O75385, whole entry: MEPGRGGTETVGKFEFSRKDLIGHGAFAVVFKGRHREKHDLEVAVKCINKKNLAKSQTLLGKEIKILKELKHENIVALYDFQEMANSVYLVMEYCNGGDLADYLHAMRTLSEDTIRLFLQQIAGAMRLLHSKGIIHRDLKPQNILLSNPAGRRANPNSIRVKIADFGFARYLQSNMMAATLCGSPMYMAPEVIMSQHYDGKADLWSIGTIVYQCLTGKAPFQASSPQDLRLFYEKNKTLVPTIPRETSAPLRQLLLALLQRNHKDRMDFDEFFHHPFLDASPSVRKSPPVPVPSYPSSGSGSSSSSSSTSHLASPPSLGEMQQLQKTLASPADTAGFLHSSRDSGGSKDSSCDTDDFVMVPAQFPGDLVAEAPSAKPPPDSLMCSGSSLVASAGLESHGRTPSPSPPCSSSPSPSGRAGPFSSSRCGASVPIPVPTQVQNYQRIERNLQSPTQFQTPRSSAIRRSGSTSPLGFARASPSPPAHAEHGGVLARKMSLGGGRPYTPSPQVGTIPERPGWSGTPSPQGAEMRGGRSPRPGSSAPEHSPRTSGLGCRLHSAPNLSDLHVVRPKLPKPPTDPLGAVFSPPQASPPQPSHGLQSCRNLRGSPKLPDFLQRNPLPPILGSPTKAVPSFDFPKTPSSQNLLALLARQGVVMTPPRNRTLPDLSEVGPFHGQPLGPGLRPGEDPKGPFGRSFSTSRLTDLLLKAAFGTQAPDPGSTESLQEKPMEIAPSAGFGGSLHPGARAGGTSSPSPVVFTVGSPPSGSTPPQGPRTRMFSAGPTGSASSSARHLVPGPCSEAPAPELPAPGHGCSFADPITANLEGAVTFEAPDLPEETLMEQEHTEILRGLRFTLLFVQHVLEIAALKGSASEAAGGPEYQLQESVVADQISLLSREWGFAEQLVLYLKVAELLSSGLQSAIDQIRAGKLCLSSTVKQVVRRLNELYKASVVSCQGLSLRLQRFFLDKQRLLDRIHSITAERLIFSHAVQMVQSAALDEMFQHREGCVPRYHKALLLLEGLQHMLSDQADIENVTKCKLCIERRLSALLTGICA
# Target: Serine/threonine-protein kinase ULK1 (Homo sapiens) (UniProt O75385)
# Assay: inhibition of human autophagy kinase ULK1 – biochemical, AlphaScreen, primary screen (AID 1259251);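 note: 0% = median of compound wells and 100% = no enzyme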
# Conditions: AlphaScreen Atg13 phosphorylation by ULK1, luminescence; at 5.96 µM; hits give high values
row,SMILES,inhibition
1,CCOC(=O)N1CCC(=O)CC1,inactive: -17.9%

# Reference: PubChem BioAssay AID1259251 (The Scripps Research Institute Molecular Screening Center, 2017)
